The source made the active and inactive calls. The rule behind the calls is not given here.
Biological target: T1, Thymidylate synthase (Lactobacillus casei) (UniProt P00469)
T1 sequence (whole entry): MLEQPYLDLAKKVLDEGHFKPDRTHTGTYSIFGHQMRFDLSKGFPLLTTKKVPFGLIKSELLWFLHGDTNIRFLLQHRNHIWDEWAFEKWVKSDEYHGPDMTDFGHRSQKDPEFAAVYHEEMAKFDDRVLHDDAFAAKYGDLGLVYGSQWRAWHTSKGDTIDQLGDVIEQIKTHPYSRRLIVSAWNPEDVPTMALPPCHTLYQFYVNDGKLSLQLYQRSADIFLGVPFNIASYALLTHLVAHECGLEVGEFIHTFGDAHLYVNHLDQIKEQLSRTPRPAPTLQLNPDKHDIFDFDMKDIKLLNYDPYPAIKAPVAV
Test: Compound was tested for its inhibition against Thymidylate synthase up to concentration of 1 mM; IA means inactive
Conditions: Lacticaseibacillus casei

With O=c1[nH]c(=O)n([C@H]2C[C@H](O)[C@@H](COP(=O)(n3ccnc3)n3ccnc3)O2)cc1F the inhibition was “inactive”.
